For this assay, the target named is human F508del-CFTR (Homo sapiens, UniProt P13569, DEL508-508). As to the kind of experiment: F508del-CFTR cell surface expression (corrector activity), DiscoveRx ß-galactosidase complementation chemiluminescence assay in recombinant U2OS cell line.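 As to all read-outs here: U2OS cells co-expressing ProLink-tagged F508del-CFTR and a membrane-anchored enzyme acceptor, where more surface CFTR restores β-galactosidase activity measured by chemiluminescence.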 The note with it: for EC50: F508del-CFTR cell surface expression.
Setting [1] is: U2OS cells, 16h compound incubation, geomean values.
[2] abbreviates: in relation to Emax of corrector lumacaftor (=100%), arithmetic mean values.

Chains of the proteins cited; added tags and fusions are not shown. A line that says so, or that is headed by a name, gives the form on record, which may keep a tag or linker.
UniProt P13569, with tags, fused parts or gaps DEL508-508: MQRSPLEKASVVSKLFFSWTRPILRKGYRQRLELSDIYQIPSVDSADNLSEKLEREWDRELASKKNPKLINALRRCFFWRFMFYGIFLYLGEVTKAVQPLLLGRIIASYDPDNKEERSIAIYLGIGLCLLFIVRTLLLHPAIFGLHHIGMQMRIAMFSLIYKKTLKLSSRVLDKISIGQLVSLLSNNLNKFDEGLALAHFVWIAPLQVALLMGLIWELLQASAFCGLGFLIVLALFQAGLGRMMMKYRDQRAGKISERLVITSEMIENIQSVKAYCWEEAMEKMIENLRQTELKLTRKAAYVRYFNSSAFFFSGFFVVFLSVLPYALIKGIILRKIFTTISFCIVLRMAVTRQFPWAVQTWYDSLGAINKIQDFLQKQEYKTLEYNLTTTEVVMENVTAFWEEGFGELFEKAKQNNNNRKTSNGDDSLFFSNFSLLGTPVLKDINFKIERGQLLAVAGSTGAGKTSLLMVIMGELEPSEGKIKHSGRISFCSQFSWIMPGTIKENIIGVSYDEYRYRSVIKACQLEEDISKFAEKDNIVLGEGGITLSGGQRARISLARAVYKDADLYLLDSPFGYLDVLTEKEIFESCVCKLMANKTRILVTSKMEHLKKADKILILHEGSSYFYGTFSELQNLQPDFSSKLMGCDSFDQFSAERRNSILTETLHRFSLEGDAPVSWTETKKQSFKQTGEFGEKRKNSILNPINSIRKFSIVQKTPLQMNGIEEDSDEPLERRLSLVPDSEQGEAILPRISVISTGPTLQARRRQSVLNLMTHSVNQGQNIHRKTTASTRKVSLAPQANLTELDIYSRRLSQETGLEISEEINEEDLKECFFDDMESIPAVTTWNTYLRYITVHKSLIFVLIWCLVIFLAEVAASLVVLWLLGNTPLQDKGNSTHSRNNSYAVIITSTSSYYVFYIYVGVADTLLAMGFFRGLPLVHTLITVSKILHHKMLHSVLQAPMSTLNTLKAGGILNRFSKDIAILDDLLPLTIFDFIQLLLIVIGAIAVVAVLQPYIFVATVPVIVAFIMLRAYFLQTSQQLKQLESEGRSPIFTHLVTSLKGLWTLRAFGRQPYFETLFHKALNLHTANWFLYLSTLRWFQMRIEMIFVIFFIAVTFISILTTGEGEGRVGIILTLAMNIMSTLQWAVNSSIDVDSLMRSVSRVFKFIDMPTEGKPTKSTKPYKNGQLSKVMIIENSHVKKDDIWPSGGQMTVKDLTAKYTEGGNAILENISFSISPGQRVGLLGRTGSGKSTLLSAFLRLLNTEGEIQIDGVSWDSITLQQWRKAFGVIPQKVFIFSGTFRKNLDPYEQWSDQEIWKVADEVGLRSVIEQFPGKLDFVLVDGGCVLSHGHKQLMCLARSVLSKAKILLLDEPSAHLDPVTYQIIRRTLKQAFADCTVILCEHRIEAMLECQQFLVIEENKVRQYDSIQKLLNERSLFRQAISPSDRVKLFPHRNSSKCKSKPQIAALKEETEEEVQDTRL

Regarding `CC(C)C[C@H]1C(=O)N(C)[C@H](Cc2nc(-c3ccc(F)cn3)no2)C(=O)N[C@H](Cc2ccccc2)COc2ccc3ncc(F)cc3c2C(=O)N[C@H](C(=O)NC[C@H](O)c2nc(C3CC3)no2)CC(=O)N1C`, where the note is “U2OS cells, 16h compound incubation, geomean of several measurements”, the EC50 worked out at 1490 nM. In addition, the Emax (in relation to the Emax of the corrector lumacaftor (=100%), U2OS cells, 16h compound incubation, arithmetic mean) turned out to be 402%.
Consider `CC(C)CC1C(=O)N(CC2COc3ccccc3C2)CC(=O)NC(Cc2ccccc2)COc2ccc3ccccc3c2C(=O)NC(C(=O)NCCc2ccc3c(c2)OCO3)CC(=O)N1C` (centres unmarked), for which the EC50 under setting [1] stood at 187 nM. The Emax under setting [2] was 211%.
Regarding `COc1cccc2c1C(=O)N[C@H](C(=O)NCCc1ccc(Br)cc1)CC(=O)N(C)[C@@H](CC(C)C)C(=O)N1CCOC[C@@H]1C(=O)N[C@H](Cc1ccccc1)CO2`, the EC50 (U2OS cell line, 16h compound incubation, geomean values) was 428 nM. Further, under “in relation to the Emax of the corrector lumacaftor (=100%), U2OS cell line, 16h compound incubation, arithmetic mean values”, the Emax turned out to be 136%.
`COc1cc2c(cn1)OC[C@@H](Cc1ccccc1)NC(=O)C1CCCCN1C(=O)[C@H](CC(C)C)N(C)C(=O)C[C@@H](C(=O)NCCc1nc(C3CC3)no1)NC2=O` (some centres unmarked): the EC50 under setting [1] was 518 nM. Besides, the Emax under setting [2] stood at 140%.

For orientation: EC50 means the midpoint of the concentration-response curve. One may read the Emax as the maximal effect, on the per cent scale that the assay sets.

The values are drawn from patent US20240208992A1, “MACROCYCLES AS CFTR MODULATORS” (Idorsia Pharmaceuticals Ltd, priority 2021, published 2024).
